# Laboratory results: US11351170B2, “Substituted pyrimidines as CDK4/6 inhibitors” (priority 2017, dated 2022)
# Amino acid sequences for entries named in this document (tags omitted). A change or cut given only in a name is not applied to a line headed by its entry.
# UniProt P11802: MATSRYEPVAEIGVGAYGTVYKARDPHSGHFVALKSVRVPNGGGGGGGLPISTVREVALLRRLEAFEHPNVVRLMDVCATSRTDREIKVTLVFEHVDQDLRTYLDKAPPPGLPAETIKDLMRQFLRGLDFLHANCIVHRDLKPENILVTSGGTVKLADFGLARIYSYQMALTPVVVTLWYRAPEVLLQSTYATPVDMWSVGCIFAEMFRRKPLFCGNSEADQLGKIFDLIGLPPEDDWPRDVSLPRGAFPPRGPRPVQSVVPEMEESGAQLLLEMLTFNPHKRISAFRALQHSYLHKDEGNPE
# UniProt Q00534, whole entry: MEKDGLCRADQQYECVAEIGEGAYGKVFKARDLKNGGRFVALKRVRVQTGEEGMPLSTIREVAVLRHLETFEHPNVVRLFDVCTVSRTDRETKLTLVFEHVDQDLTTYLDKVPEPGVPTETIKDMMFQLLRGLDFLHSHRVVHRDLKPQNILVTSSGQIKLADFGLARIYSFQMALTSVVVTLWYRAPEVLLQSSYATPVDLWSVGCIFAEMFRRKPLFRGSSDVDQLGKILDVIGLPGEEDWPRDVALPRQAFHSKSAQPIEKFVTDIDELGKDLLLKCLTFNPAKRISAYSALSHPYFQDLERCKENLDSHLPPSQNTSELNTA
# Tests used:
# CDK4 = CDK4 (Homo sapiens (Human), UniProt P11802); experiment: CDK4 Inhibition Assay; format: biochemical
# CDK6 = CDK6 (Homo sapiens (Human), UniProt Q00534); experiment: CDK6 Inhibition Assay; format: biochemical
compound,measurement,setting,value
"CCN1CCC(COc2ccc(Nc3ncc(F)c(-c4cc(F)c5nc6n(c5c4)C(C)(C)CC6)n3)nc2)CC1 [Example 8, N-(5-((1-ethylpiperidin-4-yl)methoxy)pyridin-2-yl)-5-fluoro-4-(5-fluoro-1,1-dimethyl-2,3-dihydro-1H-benzo[d]pyrrolo[1,2-a]imidazol-7-yl)pyrimidin-2-amine]",IC50,CDK4,0.16 nM
same,IC50,CDK6,4.72 nM
